Assay results from patent publication US11459295B2, “2-beta-naphthyl-acetic acid analogs as AKR1C3 inhibitors and methods of using same” (THE TRUSTEES OF THE UNIVERSITY OF PENNSYLVANIA, priority 2015, dated 2022).

Sequences of proteins named here, by UniProt entry; tags and fusion partners are left off. A change or cut given only in a name is not applied to a line headed by its entry.
UniProt P42330: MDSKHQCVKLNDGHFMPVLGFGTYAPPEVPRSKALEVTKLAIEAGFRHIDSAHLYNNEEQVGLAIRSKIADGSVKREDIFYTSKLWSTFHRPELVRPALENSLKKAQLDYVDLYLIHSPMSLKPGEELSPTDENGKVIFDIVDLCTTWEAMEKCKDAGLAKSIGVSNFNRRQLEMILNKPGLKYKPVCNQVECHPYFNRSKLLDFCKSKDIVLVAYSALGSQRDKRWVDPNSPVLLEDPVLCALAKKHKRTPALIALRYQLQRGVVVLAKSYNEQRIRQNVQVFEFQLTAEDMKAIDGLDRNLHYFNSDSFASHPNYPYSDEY

Target: AKR1C3 (Homo sapiens (Human), UniProt P42330)
Assay: S-tetralol oxidation assay, AKR1C3
Format: biochemical
Conditions: for Ratio IC50 value (AKR1C2/AKR1C3): selectivity for AKR1C3 over AKR1C2
Procedure: Enzymes were purified to constant specific activity and their purity established by SDS-PAGE. All AKR enzymes were stored at −80° C. in 20 mM potassium phosphate buffer pH 7.0 containing 30% glycerol, 1 mM EDTA, and 1 mM β-mercaptoethanol. […] The specific activities of AKR1C enzymes were determined by measuring the formation of NADH at 340 nm using a Beckman DU640 spectrophotometer. […] The mixtures were incubated at 25° C. (AKR1C1 and 1C4) or 37° C. (AKR1C2 and 1C3) for 3 min, followed by adding a serial dilution of enzyme solution to a final volume of 1 mL to initiate the reaction. After continuously monitoring for 5 min, the increase in UV absorption using different concentrations of enzyme were recorded to calculate the initial velocity of substrate oxidation and determine enzyme-specific activity.
Reagents were mixed and incubated at 37° C. for 10 min followed by adding AKR1C enzymes to initiate the reaction. […] To determine the pattern of inhibition, five fixed concentrations of S-tetralol were used and four different concentrations of inhibitor were used and a gobal fit of the equations for COMP, NONCOMP and UNCOMP to the data was applied using Grafit.

**Q.** For `CCc1ccc2cc(C(C)C(=O)O)ccc2c1` (racemic) [LM5751(±) 2, 2-(6-Ethylnaphthalen-2-yl)propanoic Acid], which “Ratio IC50 value (AKR1C2/AKR1C3)” value (Table 1) is on record?
**A.** 15

**Q.** For `CSc1ccc2cc(C(C)C(=O)O)ccc2c1` (racemic) [LM5752(±) 4, 2-(6-(Methylthio)naphthalen-2-yl)propanoic Acid], which “selectivity for AKR1C3 over AKR1C2” value (S-tetralol oxidation) is on record?
**A.** 25 fold

**Q.** What about the “Ratio IC50 value (AKR1C2/AKR1C3)” value (Table 1) of the same molecule?
**A.** 25

**Q.** For `CCOc1ccc2cc(C(C)C(=O)O)ccc2c1` (racemic) [LM5753(±) 3, 2-(6-Ethoxynaphthalen-2-yl)propanoic Acid], which “Ratio IC50 value (AKR1C2/AKR1C3)” value (Table 1) is on record?
**A.** 24

**Q.** Which results are given for `CSc1ccc2cc([C@@H](C)C(=O)O)ccc2c1` [(R)-4a, 2(R)-(6-(methylthio)naphthalen-2-yl)propanoic acid]?
**A.** selectivity for AKR1C3 over AKR1C2 (S-tetralol oxidation): 87 fold; Ratio IC50 value (AKR1C2/AKR1C3) (Table 1): 87

**Q.** With `COc1ccc2cc([C@@H](C)C(=O)O)ccc2c1` [R-Naproxen (1a), reference compound] as the molecule, how does the IC50 (NADP+ dependent oxidation of S-tetralol, S-tetralol at Km, Table 1) read?
**A.** 50 ± 4 nM

**Q.** And the IC50 (S-tetralol oxidation)?
**A.** 50 nM

**Q.** What about the IC50 (Table 2) of the same molecule?
**A.** 50 nM

**Q.** How did the IC50 (Table 2) turn out when `COc1ccc2cc([C@H](C)C(=O)O)ccc2c1` [S-Naproxen (1), (S)-2-(6-methoxynaphthalen-2-yl)propanoic acid, reference compound] was run?
**A.** 180 nM
